# Measurements as given in IntAct's records for PubMed 20389281.
# B1: Zinc finger protein SNAI1 (Homo sapiens), O95863 (parent)
# chain: MPRSFLVRKPSDPNRKPNYSELQDSNPEFTFQQPYDQAHLLAAIPPPEILNPTASLPMLIWDSVLAPQAQPIAWASLRLQESPRVAELTSLSDEDSGKGSQPPSPPSPAPSSFSSTSVSSLEAEAYAAFPGLGQVPKQLAQLSEAKDLQARKAFNCKYCNKEYLSLGALKMHIRSHTLPCVCGTCGKAFSRPWLLQGHVRTHTGEKPFSCPHCSRAFADRSNLRAHLQTHSDVKKYQCQACARTFSRMSLLHKHQESGCSGCPR
# Variants of: B1
# Conditions: with kdm1a_human KDM1A
row,effect of a mutation on the interaction,Variant
1,decreasing interaction,MPRSFLVAKPSDPNRKPNYSELQDSNPEFTFQQPYDQAHLLAAIPPPEILNPTASLPMLIWDSVLAPQAQPIAWASLRLQESPRVAELTSLSDEDSGKGSQPPSPPSPAPSSFSSTSVSSLEAEAYAAFPGLGQVPKQLAQLSEAKDLQARKAFNCKYCNKEYLSLGALKMHIRSHTLPCVCGTCGKAFSRPWLLQGHVRTHTGEKPFSCPHCSRAFADRSNLRAHLQTHSDVKKYQCQACARTFSRMSLLHKHQESGCSGCPR [R8A]

# Variants of: B1
# Conditions: with kdm1a_human KDM1A
# Remark: another data set of the same source
row,effect of a mutation on the interaction,Variant
1,disrupting interaction,MPRSFLVAKPSDPNRKPNYSELQDSNPEFTFQQPYDQAHLLAAIPPPEILNPTASLPMLIWDSVLAPQAQPIAWASLRLQESPRVAELTSLSDEDSGKGSQPPSPPSPAPSSFSSTSVSSLEAEAYAAFPGLGQVPKQLAQLSEAKDLQARKAFNCKYCNKEYLSLGALKMHIRSHTLPCVCGTCGKAFSRPWLLQGHVRTHTGEKPFSCPHCSRAFADRSNLRAHLQTHSDVKKYQCQACARTFSRMSLLHKHQESGCSGCPR [R8A]

# Variants of: B1
# Conditions: with kdm1a_human KDM1A
# Remark: another data set of the same source
row,effect of a mutation on the interaction,Variant
1,disrupting interaction,MPASFLVRKPSDPNRKPNYSELQDSNPEFTFQQPYDQAHLLAAIPPPEILNPTASLPMLIWDSVLAPQAQPIAWASLRLQESPRVAELTSLSDEDSGKGSQPPSPPSPAPSSFSSTSVSSLEAEAYAAFPGLGQVPKQLAQLSEAKDLQARKAFNCKYCNKEYLSLGALKMHIRSHTLPCVCGTCGKAFSRPWLLQGHVRTHTGEKPFSCPHCSRAFADRSNLRAHLQTHSDVKKYQCQACARTFSRMSLLHKHQESGCSGCPR [R3A]

# Variants of: B1
# Conditions: with kdm1a_human KDM1A
# Remark: another data set of the same source
row,effect of a mutation on the interaction,Variant
1,disrupting interaction,MPRSFLVRAPSDPNRKPNYSELQDSNPEFTFQQPYDQAHLLAAIPPPEILNPTASLPMLIWDSVLAPQAQPIAWASLRLQESPRVAELTSLSDEDSGKGSQPPSPPSPAPSSFSSTSVSSLEAEAYAAFPGLGQVPKQLAQLSEAKDLQARKAFNCKYCNKEYLSLGALKMHIRSHTLPCVCGTCGKAFSRPWLLQGHVRTHTGEKPFSCPHCSRAFADRSNLRAHLQTHSDVKKYQCQACARTFSRMSLLHKHQESGCSGCPR [K9A]

# Variants of: B1
# Conditions: with kdm1a_human KDM1A
# Remark: another data set of the same source
row,effect of a mutation on the interaction,Variant
1,disrupting interaction,MPRAFLVRKPSDPNRKPNYSELQDSNPEFTFQQPYDQAHLLAAIPPPEILNPTASLPMLIWDSVLAPQAQPIAWASLRLQESPRVAELTSLSDEDSGKGSQPPSPPSPAPSSFSSTSVSSLEAEAYAAFPGLGQVPKQLAQLSEAKDLQARKAFNCKYCNKEYLSLGALKMHIRSHTLPCVCGTCGKAFSRPWLLQGHVRTHTGEKPFSCPHCSRAFADRSNLRAHLQTHSDVKKYQCQACARTFSRMSLLHKHQESGCSGCPR [S4A]

# Variants of: B1
# Conditions: with kdm1a_human KDM1A
# Remark: another data set of the same source
row,effect of a mutation on the interaction,Variant
1,disrupting interaction,MPRSALVRKPSDPNRKPNYSELQDSNPEFTFQQPYDQAHLLAAIPPPEILNPTASLPMLIWDSVLAPQAQPIAWASLRLQESPRVAELTSLSDEDSGKGSQPPSPPSPAPSSFSSTSVSSLEAEAYAAFPGLGQVPKQLAQLSEAKDLQARKAFNCKYCNKEYLSLGALKMHIRSHTLPCVCGTCGKAFSRPWLLQGHVRTHTGEKPFSCPHCSRAFADRSNLRAHLQTHSDVKKYQCQACARTFSRMSLLHKHQESGCSGCPR [F5A]

# Variants of: B1
# Conditions: with kdm1a_human KDM1A
# Remark: another data set of the same source
row,effect of a mutation on the interaction,Variant
1,disrupting interaction,MARSFLVRKPSDPNRKPNYSELQDSNPEFTFQQPYDQAHLLAAIPPPEILNPTASLPMLIWDSVLAPQAQPIAWASLRLQESPRVAELTSLSDEDSGKGSQPPSPPSPAPSSFSSTSVSSLEAEAYAAFPGLGQVPKQLAQLSEAKDLQARKAFNCKYCNKEYLSLGALKMHIRSHTLPCVCGTCGKAFSRPWLLQGHVRTHTGEKPFSCPHCSRAFADRSNLRAHLQTHSDVKKYQCQACARTFSRMSLLHKHQESGCSGCPR [P2A]
